# Measurements published in patent US6872574B2, “Proteomic analysis” (The Scripps Research Institute, priority 2000, dated 2005).
# Tested on: trypsin
# Experiment: Biotinylated FP labeling of protease, SDS-PAGE and avidin blotting
# Assay type: binding
substance,measurement,value
10-(fluoroethoxyphosphinyl)-N-(biotinamidopentyl)-decanamide,labeling of trypsin,reacted strongly with free trypsin
